Source: ChEMBL document CHEMBL5030561, “Discovery of novel aminosaccharide-based sulfonamide derivatives as potential carbonic anhydrase II inhibitors” (Bioorg Med Chem Lett, 2021)

Tests used:
Homo sapiens [1] = species on record: Homo sapiens; assay: Selectivity ratio of IC50 for inhibition of recombinant human CA1 to IC50 for inhibition of recombinant human CA2 using 4-nitrophenylacetate as substrate by esterase assay
Homo sapiens [2] = species on record: Homo sapiens; assay: Selectivity ratio of IC50 for inhibition of recombinant human CA9 to IC50 for inhibition of recombinant CA2 using 4-nitrophenylacetate as substrate by esterase assay

## CC(=O)Nc1nnc(S(N)(=O)=O)s1 [ACETAZOLAMIDE]
Homo sapiens [1]
  Selectivity ratio: 25
Homo sapiens [2]
  Selectivity ratio: 2.5
